We go through 1 compound from patent publication US8293736B2, “Purine compounds selective for PI3K P110 delta, and methods of use” (F. Hoffmann la Roche AG, priority 2010, dated 2012).

The chains behind the UniProt entries cited, without tags or fusion partners. Where a name states a change or a piece, a line headed by the entry shows the natural chain unless it says otherwise.
UniProt O00329: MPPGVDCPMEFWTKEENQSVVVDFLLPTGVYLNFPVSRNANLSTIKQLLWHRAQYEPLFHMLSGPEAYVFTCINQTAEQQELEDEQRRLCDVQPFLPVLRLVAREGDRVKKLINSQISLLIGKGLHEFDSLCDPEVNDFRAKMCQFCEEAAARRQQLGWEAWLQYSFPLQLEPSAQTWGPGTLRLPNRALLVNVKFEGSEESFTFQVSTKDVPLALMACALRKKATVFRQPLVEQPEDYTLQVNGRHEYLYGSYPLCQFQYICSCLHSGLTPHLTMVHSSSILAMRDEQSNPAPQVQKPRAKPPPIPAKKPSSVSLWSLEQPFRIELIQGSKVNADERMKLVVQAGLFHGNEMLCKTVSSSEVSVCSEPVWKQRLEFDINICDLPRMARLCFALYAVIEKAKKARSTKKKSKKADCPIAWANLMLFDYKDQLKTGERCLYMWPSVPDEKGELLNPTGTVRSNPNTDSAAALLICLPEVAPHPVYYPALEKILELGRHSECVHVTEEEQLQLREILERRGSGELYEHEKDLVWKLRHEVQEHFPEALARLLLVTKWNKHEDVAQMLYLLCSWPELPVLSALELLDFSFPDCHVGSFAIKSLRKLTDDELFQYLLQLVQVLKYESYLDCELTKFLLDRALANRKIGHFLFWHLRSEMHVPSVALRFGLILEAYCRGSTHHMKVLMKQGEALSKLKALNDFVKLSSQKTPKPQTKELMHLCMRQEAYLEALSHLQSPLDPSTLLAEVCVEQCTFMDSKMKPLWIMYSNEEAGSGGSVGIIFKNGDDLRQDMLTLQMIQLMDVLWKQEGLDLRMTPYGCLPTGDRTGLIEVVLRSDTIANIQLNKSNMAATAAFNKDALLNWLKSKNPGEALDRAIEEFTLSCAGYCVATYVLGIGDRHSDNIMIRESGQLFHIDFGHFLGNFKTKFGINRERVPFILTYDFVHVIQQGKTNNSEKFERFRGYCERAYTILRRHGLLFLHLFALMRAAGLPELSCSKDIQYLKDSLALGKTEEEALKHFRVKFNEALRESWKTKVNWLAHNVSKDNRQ
UniProt P42336, whole entry, species assumed: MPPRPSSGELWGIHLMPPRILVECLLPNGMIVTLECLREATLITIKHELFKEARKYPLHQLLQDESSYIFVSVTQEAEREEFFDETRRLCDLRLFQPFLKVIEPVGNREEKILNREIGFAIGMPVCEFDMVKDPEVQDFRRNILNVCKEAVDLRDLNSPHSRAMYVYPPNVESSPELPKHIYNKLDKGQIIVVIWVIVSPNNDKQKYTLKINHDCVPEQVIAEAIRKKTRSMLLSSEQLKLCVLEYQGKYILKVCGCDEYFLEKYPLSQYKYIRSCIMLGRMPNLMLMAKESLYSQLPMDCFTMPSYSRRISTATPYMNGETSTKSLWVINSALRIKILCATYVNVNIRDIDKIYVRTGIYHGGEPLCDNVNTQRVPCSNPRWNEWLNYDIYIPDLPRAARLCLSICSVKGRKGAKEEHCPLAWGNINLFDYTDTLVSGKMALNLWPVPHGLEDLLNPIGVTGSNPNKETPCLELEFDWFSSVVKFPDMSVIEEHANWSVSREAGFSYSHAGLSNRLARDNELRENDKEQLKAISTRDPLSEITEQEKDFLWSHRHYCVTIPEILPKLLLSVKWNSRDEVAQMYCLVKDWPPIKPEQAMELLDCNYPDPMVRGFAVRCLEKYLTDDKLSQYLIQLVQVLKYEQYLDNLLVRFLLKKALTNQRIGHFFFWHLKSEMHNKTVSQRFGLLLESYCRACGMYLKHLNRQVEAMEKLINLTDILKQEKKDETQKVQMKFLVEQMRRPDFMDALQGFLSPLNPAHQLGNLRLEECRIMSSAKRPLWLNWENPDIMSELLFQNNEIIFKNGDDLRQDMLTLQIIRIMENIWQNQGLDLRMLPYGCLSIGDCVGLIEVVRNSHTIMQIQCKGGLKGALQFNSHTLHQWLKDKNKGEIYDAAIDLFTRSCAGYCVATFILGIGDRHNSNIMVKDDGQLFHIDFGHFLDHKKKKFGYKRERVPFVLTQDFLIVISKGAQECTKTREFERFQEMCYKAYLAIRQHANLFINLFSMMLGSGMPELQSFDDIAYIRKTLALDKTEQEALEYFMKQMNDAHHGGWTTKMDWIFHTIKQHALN

One assay addresses T1, p110 delta (Homo sapiens, UniProt O00329).
T1 construct: purchased Upstate Group, Millipore; Dundee, UK
In words: PI3K isoform inhibition assay (fluorescence polarization), p110 delta. Type of assay: biochemical. The conditions noted are these: Ki apparent, Morrison equation; 25 μM ATP, 10 μM PIP2. Here is the method:
(§1) Determination of the activity of PI3 kinase activity of Formula I compounds is possible by a number of direct and indirect detection methods.
(§2) PI3K enzymatic activity was assayed by measuring the amount of product phosphatidylinositol 3,4,5-phosphate (PIP3) formed from substrate 4,5 phosphatidylinositol 4,5-phosphate (PIP2) using a fluorescence polarization displacement assay. The decrease in fluorescence polarization of a fluorescent PIP3 probe is measured as it is displaced from a PIP3-binding protein GRP-1 detector by PI3K-catalyzed product. […] The kinase reactions were initiated by the addition of 40 ng/mL p110α/p85α, 300 ng/mL p110β/p85α, 40 ng/mL p110γ, or 40 ng/mL p110δ/p85α (Upstate Group, Millipore; Dundee, UK), and 10 μM PIP2 (Echelon Biosciences) to the wells. […] After 60 minutes of incubation at room temperature to allow equilibration of labeled and unlabeled PIP3 binding, the parallel and perpendicular components of the fluorescence emissions from each sample were measured at an excitation wavelength of 530 nm and an emission wavelength of 590 nm using an Envision fluorescent plate reader with a rhodamine filter (PerkinElmer Life and Analytical Sciences; Wellesley, Mass.). […]
The Formula I compound was serially diluted in 100% DMSO. […] IC50 values were subsequently determined using sigmoidal dose-response curve fit (variable slope). […]

The target of a further assay is T2, p110 alpha (Homo sapiens, UniProt P42336).
T2 construct: purchased Upstate Group, Millipore; Dundee, UK
Kind of assay: PI3K isoform inhibition assay (fluorescence polarization), p110 alpha. The class given is biochemical. Particulars: delta/alpha selectivity ratio. Here is the method: as §1
as §2, with “Mass.). The assay is capable of detecting 0.1-2.0 μM PIP3 product.” for “Mass.).”
(Fluorescence polarisation rises when a labelled molecule tumbles more slowly, as on binding a larger partner.)

For the compound `CCc1nc2ccccc2n1-c1nc(N2CCOCC2)c2nc(OC3CN(C(=O)C(C)C)C3)n(C)c2n1` [Compound 122, 1-(3-(2-(2-ethyl-1H-benzo[d]imidazol-1-yl)-9-methyl-6-morpholino-9H-purin-8-yloxy)azetidin-1-yl)-2-methylpropan-1-one], on p110 delta, the Ki worked out at 0.576 nM. Moreover, at p110 alpha, the “Ki p110 alpha/ Ki p110 delta” value is reported as 175.
